Measurements published in publication PMC9770395 (PLOS Neglected Tropical Diseases, 2022).

Assays:
[1] = test system: intracellular cAMP levels in T84 cells; conditions: 20 μM; 1 h
[2] = test system: intracellular Ca^2+ levels in T84 cells; conditions: 20 μM

For CC[C@H](C)C(=O)O[C@H]1C[C@@H](C)C=C2C=C[C@H](C)[C@H](CC[C@@H]3CC=CC(=O)O3)[C@H]21 [DHLV, α,β-dehydrolovastatin], the “Effect on intracellular cAMP levels” value [1] was “did not affect” and the “Effect on ATP-induced intracellular Ca^2+ elevation (AUC)” value [2] was “no significant effects”.
